From ChEMBL document CHEMBL1914421, “Aminomethyltetrazoles as potential inhibitors of the γ-aminobutyric acid transporters mGAT1-mGAT4: synthesis and biological evaluation” (Bioorg Med Chem, 2011) come the findings set out here.

This experiment relates to betaine/GABA transporter BGT-1 (Slc6a12, Mus musculus). In words: Residual mouse GAT2-mediated [3H]GABA uptake expressed in human HEK cells at 100 uM. The following applies: HEK293.

Structures are written as SMILES.

As to `c1ccc(C(NCc2nnnn2C2CCCCC2)c2ccccc2)cc1`, the residual activity (as a rule, the activity still measured, relative to the control) stood at 76.3%. To `c1ccc(C(CCNCc2nnnn2C2CCCCC2)c2ccccc2)cc1` belongs 74.8%.
